{
  "source": "patent US7365194B2",
  "about": "“Dimer of phenazine-1-carboxylic acid and to the process of preparation thereof” (Pondicherry University and Department of Biotechnology, priority 2004, dated 2008)",
  "tested_on": "cell lines",
  "test": "MTT cytotoxicity assay",
  "type": "cell-based",
  "settings": "24 hr at 37° C.",
  "description": "Dimer of phenazine-1-carboxylic acid natural product was tested for cytotoxycity using 3-(4,5-dimethylthiazol-2-yl)-2,5-diphenyltetrazolium bromide (MTT) assay. The cells (3×10^3/well) were cultured in 96-well plates with different concentrations of dimer of phenazine-1-carboxylic acid natural product (1-50 μg) for 24 hr at 37° C. At the end of incubation, 20 μL MTT (5 mg/mL) was added and cells were incubated at 37° C. After 4 hr, MTT was removed and 100 μL of DMSO was added. Cell viability was determined by measuring the absorbance at a test wavelength of 570 nm.\nCytotoxycity of dimer of phenazine-1-carboxylic acid natural product against cell lines was determined by MTT assay. For MTT assay, the cells (3×10^3/well) were cultured in 96-well plates with different concentrations of dimer of phenazine-1-carboxylic acid natural product for 24 hr at 37° C. At the end of incubation, 20 μL MTT (5 mg/mL) was added and cells were incubated at 37° C. After 4 hr, MTT was removed and 100 μL of DMSO was added. Cell viability was determined by measuring the absorbance at a test wavelength of 570 nm.",
  "data": [
    {"substance": "dimer of phenazine-1-carboxylic acid", "values": [
      {"measurement": "Cell viability (%)", "setting": "concentration 1 (1-50 μg)", "value": 45.03, "unit": "%"},
      {"measurement": "Cell viability (%)", "setting": "concentration 10 (1-50 μg)", "value": 40.03, "unit": "%"},
      {"measurement": "Cell viability (%)", "setting": "concentration 25 (1-50 μg)", "value": 31.07, "unit": "%"},
      {"measurement": "Cell viability (%)", "setting": "concentration 50 (1-50 μg)", "value": 24.17, "unit": "%"}
    ]}
  ]
}
